System: fish
Test: Fish school behaviour in contaminated test tank (Tank B) versus control tank (Tank A), video monitoring
Conditions: about 20 fish, Tank B (contaminated water) vs control Tank A, about 20,000 frames, fish put into water at Frame 0
Excerpt: In the example embodiment, images are captured at about six frames per second. However, it should be appreciated that a different number of frames per second can also be used. A tracking module is used to associate the same fish throughout the image sequence. Using the spatial information provided by its physical dimension and position mapped on the images, each fish i can be represented by a set of coordinates of the pixels which it occupies.
The activity level of the fish school in the example embodiment can be determined by how fast the fish swim and the complexity of their swimming path. The speed of each fish in the confinement area can be calculated by taking the displacement of its position between consecutive frames. […]
The distribution of a fish school is determined in the example embodiment by the population of fish in different parts of the confinement structure. […]
In the example embodiment, the probability of avoidance behaviour is calculated over a specified number of frames, with each frame having the same weightage, and the probability would increase if the percentage of fish found in the monitored region is less than a certain level, i.e. if most of the fish school is swimming along the sides of the confinement structure, the probability of avoiding the centre region will increase as Q for the centre region is less than T. […]

## Chlorine
  overall school speed: relative hyperactivity after being placed into the tank and start to swim more lethargically after a while

From patent US8723949B2, “Fish activity monitoring system for early warning of water contamination” (dated 2014)
